Data as given in patent US4298594A, “Xenobiotic delivery vehicles, method of forming them and method of using them” (Arthur D. Little, Inc., priority 1980, dated 1981).

Experiment: in vitro stability of microreservoirs and liposomes (optical density ratio A400/A600, thin layer chromatograms)
Conditions: after sonication and centrifugation

Question: For phosphatidyl choline, which “degradation by thin layer chromatograms of the centrifugates” value is on record?
Answer: The value was “no evidence of degradation”.
